Source: publication PMC6209313 (Molecular Pharmaceutics, 2018)

Assay: Maximum drug loading capacity
Type: physicochemical
Conditions: 37 °C, mean (sd)

- maximum drug loading capacity (loading) (IIIA-LC): 2.8 (0.1) mg/g
- maximum drug loading capacity (loading) (IIIB-MC): 8.1 (0.0) mg/g
- maximum drug loading capacity (loading) (IV): 12.4 (0.5) mg/g
Structure (SMILES): COC1=CC(=O)C[C@@H](C)[C@]12Oc1c(Cl)c(OC)cc(OC)c1C2=O [Griseofulvin]
